This test deals with recombinant human CYP17 enzyme (Homo sapiens (Human), UniProt P05093). As to the kind of experiment: Cytochrome P450, 17-20 lyase (CYP17-lyase) assay, tritiated acetic acid release from 17-α-hydroxy pregnenolone [21-3H]. The format is biochemical. Conditions: read-out: Lyase IC 50 nM Human/Rat (Human); human CYP17, substrate 0.25 μM; tested form: TFA. The source says:
Assay method was adopted from a published protocol with some modifications to suit our requirements (Dmitry N Grigoryev et al, Analytical Biochemistry, (1999) 267, 319-330). […] Chloroform extraction removes the radioactive steroids and acetic acid is taken into aqueous layer. The tritiated acetic acid released in the assay thus extracted is quantified to determine the enzyme activity. […] The purified cell membrane preparations were used as the source for Human CYP17 enzyme. […] O, Nijar, et al., J Med Chem, (1998) 41, 902-912). […] Km for this substrate was determined by monitoring the tritiated acetic acid release as a function of substrate concentration. […] For the Km determination, the data was fit to a hyperbolic equation (Graphpad Prism® software IV). […] (Dmitry N. Grigoryev et al, Analytical Biochemistry (1999) 267, 319-330) […] NADPH is used at a final concentration of 4.2 mM. Total reaction volume was made up to 50 μL with 50 mM Phosphate buffer pH 7.5. The reaction mixture was incubated at room temperature for 90 minutes with gentle shaking. The reaction was stopped by the addition of 100 μL of buffer. […] The radioactivity was measured in a 1450 MicroBeta TriLux™ scintillation counter from Wallac-Perkin Elmer®, USA. […] Percent lyase activity in presence of inhibitor was calculated using the formula given below. […]

Protein sequences, listed by entry. Tags and fused reporters are not part of them.
UniProt P05093, whole entry: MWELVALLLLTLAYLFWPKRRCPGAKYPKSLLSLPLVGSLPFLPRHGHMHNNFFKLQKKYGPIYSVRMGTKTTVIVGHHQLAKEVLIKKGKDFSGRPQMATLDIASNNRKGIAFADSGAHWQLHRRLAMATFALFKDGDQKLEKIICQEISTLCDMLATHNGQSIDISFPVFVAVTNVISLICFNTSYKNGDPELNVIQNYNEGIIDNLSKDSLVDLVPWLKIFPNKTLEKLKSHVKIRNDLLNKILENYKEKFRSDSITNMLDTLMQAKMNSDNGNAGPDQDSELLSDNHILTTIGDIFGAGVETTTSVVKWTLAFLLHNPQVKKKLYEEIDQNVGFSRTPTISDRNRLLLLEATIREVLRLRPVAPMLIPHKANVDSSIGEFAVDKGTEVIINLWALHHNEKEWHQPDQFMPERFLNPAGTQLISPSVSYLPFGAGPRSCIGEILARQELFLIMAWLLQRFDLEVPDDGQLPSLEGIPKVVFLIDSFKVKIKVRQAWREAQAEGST

As for `Cc1ccncc1N1CCN(c2cn(C)c3ccccc23)C1=O`, the IC50 was determined as 173 nM.

Values taken from patent publication USRE45173E1, “Inhibitors of CYP 17” (Novartis AG, priority 2009, dated 2014).
